Source: patent US7183319B2 (priority 2000, dated 2007)

Tested on: mushroom tyrosinase
Details: oximetry, compared with tyrosine methyl ester

## Methyl-2-di(2chloroethyl)aminocarbonylamino-3-(4-hydroxyphenyl)proponoate
  quality as tyrosinase substrate / oxidation rate in words: good substrates
